Test results taken from USRE32311E.

Test: toxicity, LD50 in mice
Format: in vivo
Conditions: administered intravenously

Structure (SMILES) | LD50 in Mice [mg/kg]
CCCCCCCCCCCCC(=O)N[C@@H](Cc1ccccc1)C(=O)N[C@@H](Cc1c[nH]c2ccccc12)C(=O)N[C@H](CC(N)=O)C(=O)N[C@@H](CC(=O)O)C(=O)N[C@@H]1C(=O)NCC(=O)N[C@@H](CCCN)C(=O)N[C@@H](CC(=O)O)C(=O)N[C@H](C)C(=O)N[C@@H](CC(=O)O)C(=O)NCC(=O)N[C@H](CO)C(=O)N[C@@H]([C@H](C)CC(=O)O)C(=O)N[C@@H](CC(=O)c2ccccc2N)C(=O)O[C@@H]1C [Compound 21] | 225
CCCCCCCCCCC(=O)N[C@@H](Cc1ccccc1)C(=O)NCCC[C@@H]1NC(=O)CNC(=O)[C@@H](NC(=O)[C@H](CC(=O)O)NC(=O)[C@@H](CC(N)=O)NC(=O)[C@@H](N)Cc2c[nH]c3ccccc23)[C@@H](C)OC(=O)[C@H](CC(=O)c2ccccc2N)NC(=O)[C@H]([C@H](C)CC(=O)O)NC(=O)[C@@H](CO)NC(=O)CNC(=O)[C@H](CC(=O)O)NC(=O)[C@@H](C)NC(=O)[C@H](CC(=O)O)NC1=O [Compound 26] | 225
